Test results taken from PubChem BioAssay (Tox21).
Where “and” joins values, the source holds several entries; their conditions need not be identical. Equal entries are not always repeated. The entries are a selection whose mix differs from that of the whole data set. Records with an inconclusive call do not appear. Calls of active or inactive are those of the source. Calls follow the shape of the dose curve; as a rule, active = well fitted activation curve with a large enough effect in the repeat runs; inconclusive = weak or mixed curves; inactive = flat fitted curve, though single readings scatter.

Test: A CellTox Green Cytotoxicity Assay to monitor cytotoxicity in HEK293 cells - 24 hour (AID 1224875); also: nearly all actives have a fitted effect of over 45% in size
Conditions: CellTox Green fluorescence; series mostly up to 76.8 µM; activity change: at the top concentration
Text: National Center for Advancing Translational Sciences [NCATS]
NIH Chemical Genomics Center [NCGC]
U.S. Environmental Protection Agency [EPA]
National Institutes of Environmental Health Sciences [NIEHS]
National Toxicology Program [NTP]
Cell-based models are critical for drug discovery. Determining the natural cytotoxic effects resulting from test compounds is an essential research activity. A CellTox Green Cytotoxicity Assay to monitor cytotoxicity in real time of continues cell culture during 40 hours of the compound treatment was used to screen Tox21 10K library compounds in Hek293 cells. CellTox Green Cytotoxicity Assay is a nonlytic, homogeneous, biofluorescent method to measure cytotoxicity in cell culture after experimental manipulation. The assay system uses a proprietary asymmetric cyanine dye that is excluded from viable cells but preferentially stains the dead cell's DNA. […] Viable cells produce no appreciable increases in fluorescence. Therefore, the fluorescence signal produced by the binding interaction with dead cell DNA is proportional to cytotoxicity.
The mixture of Hek293 cell suspension and reagents were dispensed at 600cells/6 ul/well in 1536-well tissue culture treated black solid bottom plates using a Multidrop dispenser. After the assay plates were incubated at a 37 C/5% CO2 incubator for 5 hours, 23 nL of compounds dissolved in DMSO, positive and negative controls was transferred to the assay plate by a pintool work station. The plates were incubated at 37 C for 40 hours. The fluorescence intensity were measured at 0h, 8h, 16h, 24h, 32h and 40h time points using ViewLux plate reader during compound treatment.
% is scaled to controls: 0 for no effect and ±100 for the full control effect; potency is read from the fitted curve at half-maximal effect.

| Structure (SMILES) | activity change | Potency |
| --- | --- | --- |
| CC(C)OP(=S)(OC(C)C)SCCNS(=O)(=O)c1ccccc1 | inactive: -4.37% |  |
| CCNC(C)Cc1ccc2c(c1)OCO2 (centres undefined) | inactive: 0.421% |  |
| CCOP(=S)(CC)Sc1ccccc1 (centres undefined) | inactive: 0.258% |  |
| O=[N+]([O-])c1ccc([N+](=O)[O-])cc1 | inactive: -26.1% |  |
| O=C(Cl)OCCOC(=O)Cl | inactive: -4.75% |  |
| CN(N=O)C(=N)N[N+](=O)[O-] | inactive: 6.99% |  |
| CCCCC(CC)CO[P+](=O)OCC(CC)CCCC (centres undefined) | inactive: -15.8% |  |
| O=[p+]1oc2ccccc2c2ccccc21 (centres undefined) | inactive: 19.5% |  |
| CCCCO[P+](=O)OCCCC |  | inactive |
| CCOC(=O)Cl | inactive: -0.387% |  |
| Cc1cc([N+](=O)[O-])c(O)c([N+](=O)[O-])c1 | inactive: -13.7% |  |
| CCC(C)(OOC(C)(C)C)OOC(C)(C)C | inactive: -5.94% [at 15.8 µM, stronger effect = higher value] |  |
| CN(C(=O)Cc1cccc2occc12)[C@H]1CC[C@@]2(CCCO2)C[C@@H]1N1CCCC1 | inactive: -6.21% |  |
| COC(=O)Cl | inactive: -0.12% |  |
| O=[N+]([O-])c1ccc(S(=O)(=O)O)c([N+](=O)[O-])c1 | inactive: -0.735% |  |
| O=[P+](Oc1ccccc1)Oc1ccccc1 | inactive: 0.128% |  |
| Cc1cc([N+](=O)[O-])cc([N+](=O)[O-])c1O |  | inactive |
| O=P(Cl)(Oc1ccccc1)Oc1ccccc1 | inactive: 5.59% |  |
| COP(=S)(Cl)OC | inactive: -9.64% |  |
| NC(=O)Nc1ccc([As](=O)(O)O)cc1 |  | inactive |
| CC(C)CCCCCCCOP(OCCCCCCCC(C)C)Oc1ccccc1 | inactive: 0.146% |  |
| O=[As]c1ccccc1 (centres undefined) |  | active: 616 nM |
| O=C(Cl)Oc1ccccc1 | inactive: -3.74% |  |
| O=C1C2CC=CCC2C(=O)N1SC(Cl)(Cl)C(Cl)Cl (centres undefined) |  | active: 39.2 µM and active: 7.76 µM |
| CN(C(=O)Cc1ccccc1)[C@H]1CC[C@@]2(CCCO2)C[C@@H]1N1CCCC1 | inactive: 7.2% [at 35.3 µM, stronger effect = higher value] |  |
| O=P(Cl)(Cl)c1ccccc1 | inactive: -19.6% |  |
| ClP(Cl)c1ccccc1 | inactive: 3.93% |  |
| CN(C(=O)Cc1ccc(Cl)c(Cl)c1)[C@H]1CC[C@@]2(CCCO2)C[C@@H]1N1CCCC1 | inactive: -16.7% [at 35.3 µM, stronger effect = higher value] |  |
| CCCCOP(OCCCC)OCCCC | inactive: -4.79% |  |
